Measured values published in patent US20230233569A1 (Revolution Medicines, Inc., priority 2020, published 2023).

Protein sequences, listed by entry. Tags and fused reporters are not part of them. Lines headed by an entry give the natural chain unless they say otherwise; changes in a name come on top. Residues count along the entry.
UniProt P01116, 1-169 isoform 2 G12C limits assumed: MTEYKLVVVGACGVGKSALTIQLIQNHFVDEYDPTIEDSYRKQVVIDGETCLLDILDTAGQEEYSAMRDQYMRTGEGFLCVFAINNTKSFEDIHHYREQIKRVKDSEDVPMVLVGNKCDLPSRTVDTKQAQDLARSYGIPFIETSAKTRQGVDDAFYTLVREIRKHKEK
UniProt P62937, whole entry, stated change not applied: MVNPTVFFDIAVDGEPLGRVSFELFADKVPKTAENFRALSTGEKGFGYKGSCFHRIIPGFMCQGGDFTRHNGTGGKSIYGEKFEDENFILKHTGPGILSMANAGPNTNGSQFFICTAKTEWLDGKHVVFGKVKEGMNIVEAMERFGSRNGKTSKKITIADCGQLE

How the values were obtained:
NCI-H358 (K-Ras G12C) = test: CellTiter-Glo cell viability assay, 5-day treatment; assay type: cell-based, human; conditions: read-out: H358 Cell Viability (K-Ras G12C) IC50
KRAS G12C = KRAS G12C (Homo sapiens, UniProt P01116+P62937, G12C); test: Disruption of BRAF RBD interaction with Ras (FRET / MOA assay, with Cyclophilin A); assay type: biochemical; conditions: read-out: FRET (K-Ras G12C) IC50
[1] = tested on: K-Ras G12C (NCI-H358 cells); test: Potency assay: pERK (AlphaLISA SureFire or In-Cell Western); assay type: cell-based, human; conditions: read-out: H358 pERK (K-Ras G12C) EC50

IC50 (NCI-H358 (K-Ras G12C)): 0.8 nM
IC50 (KRAS G12C): 9 nM
EC50 [1]: 3 nM
SMILES: C=CC(=O)N1CC[C@H](C(=O)N(C)[C@H](C(=O)N[C@H]2Cc3cc(O)cc(c3)-c3ccc4c(c3)c(c(-c3ccc(N5CCN(C)CC5)nc3)n4CC)CC(C)(C)COC(=O)[C@@H]3CCCN(N3)C2=O)C(C)C)C1 [A89a]
